Laboratory results from patent US10869938B2, “Magnetic resonance imaging” (1C TARGETS AS, priority 2007, dated 2020).

Test: Water solubility comparison
Format: physicochemical

water solubility (comparison): higher water solubility than MnPLED
Substance: manganese (II) chelate of N-pyridoxyl, N′-(pyridoxyl-5-phosphate)-ethylenediamine-N—N′-diacetic acid [MnDPMP]
